Test results as given in PubChem BioAssay AID1259400 (National Center for Advancing Translational Sciences (NCATS), 2018).
This is a selection; strong and weak results do not stand in their true shares. Activity calls are given as the source filed them.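 How the source made its calls: active means activity change of -60% or lower, but not beyond a set lower limit; inconclusive means change between -60% and -40%, or beyond the set limit; inactive means change above -40%.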

The chains behind the UniProt entries cited, without tags or fusion partners. Where a name states a change or a piece, a line headed by the entry shows the natural chain unless it says otherwise.
UniProt Q9HBX9: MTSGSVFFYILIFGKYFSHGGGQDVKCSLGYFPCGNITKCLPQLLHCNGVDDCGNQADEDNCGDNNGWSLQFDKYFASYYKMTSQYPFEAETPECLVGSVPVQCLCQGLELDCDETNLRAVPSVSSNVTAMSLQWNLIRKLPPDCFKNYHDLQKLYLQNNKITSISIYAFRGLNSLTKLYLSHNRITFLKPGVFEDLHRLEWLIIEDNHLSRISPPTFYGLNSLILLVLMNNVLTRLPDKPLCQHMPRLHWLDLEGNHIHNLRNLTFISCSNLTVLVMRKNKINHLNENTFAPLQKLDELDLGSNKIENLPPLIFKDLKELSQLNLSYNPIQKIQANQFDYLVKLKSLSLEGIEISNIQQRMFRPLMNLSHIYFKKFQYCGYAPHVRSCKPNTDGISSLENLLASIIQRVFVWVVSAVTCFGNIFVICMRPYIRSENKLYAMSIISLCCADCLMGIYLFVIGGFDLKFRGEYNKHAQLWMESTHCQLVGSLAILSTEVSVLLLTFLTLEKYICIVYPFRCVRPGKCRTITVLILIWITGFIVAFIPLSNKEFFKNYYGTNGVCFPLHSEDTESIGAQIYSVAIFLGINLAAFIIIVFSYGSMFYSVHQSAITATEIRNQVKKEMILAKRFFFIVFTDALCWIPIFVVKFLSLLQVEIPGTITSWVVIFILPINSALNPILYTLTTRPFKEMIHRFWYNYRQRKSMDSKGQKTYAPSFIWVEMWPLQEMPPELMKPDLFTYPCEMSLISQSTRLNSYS

biological target: Relaxin receptor 1 (Homo sapiens) (UniProt Q9HBX9); experiment: qHTS Assay for Antagonists of the Relaxin Receptor RXFP1; settings: HEK293-RXFP1, relaxin-stimulated cAMP HTRF, 30 min; at 57.5 µM; active compounds read low
From the text: The relaxin hormone is involved in the variety of biological functions in normal tissues and diseases. The role of relaxin is well-established in female reproduction and parturition, mammary gland and endometrial development, maintenance of myometrial quiescence during pregnancy. Relaxin signaling through its G protein-coupled receptor (GPCR) RXFP1 results in ECM remodeling through regulation of collagen deposition, cell invasiveness, proliferation and overall tissue homeostasis. […] Recombinant human relaxin (rhRlx) is currently being tested in clinical trials as a protective agent in congestive heart failure, in treating severe preeclampsia, and as an anti-fibrotic agent in various organs. […] Upon relaxin binding RXFP1 activation leads to the activation of adenylate cyclase (AC) via G?s. cAMP will activate PKA, which phosphorylates many signaling proteins. Thus, detection of cAMP increase is an easy and reliable indication of relaxin receptor activation. To screen for antagonists of the relaxin receptor, a HEK293T cell line stably transfected with RXFP1 was used. RXFP1 activation by relaxin in presence of various concentrations of tested compounds was assayed by changes in cAMP levels as detected with a time-resolved fluorescence energy transfer (TR-FRET) cAMP detection kit.
For the primary screening, we used HTRF(R) (Homogenous Time-Resolved Fluorescence) cAMP HiRange assay (Cisbio Bioassays, 62AM6PEJ). Presence of cAMP in the cell lysate disrupts binding between the Cryptate-labeled anti-cAMP and d2-labeled cAMP pair, leading to a decrease in TR-FRET signal. The libraries were screened at two doses (57microM and 11microM), followed by a confirmation of the hits at 7-point serial dilution in the range of final concentrations [57microM - 78nM]. Data were normalized to the controls for basal activity (buffer only) and 100% activity (5 nM porcine relaxin). The EC50 values were determined from concentration-response data modeled with the standard Hill equation. NCGC Assay Protocol Summary: HiHEK (Hawaiian HEK293 LGR7 stably transfected with human RXFP1) were grown in the following media: DMEM+10%FBS+Pen/Strep + Geneticin (1mg/ml). For the assay, the cells were seeded in DMEM+Pen/Strep (with no serum & selective antibiotics) at 2,100 cells/ 3microl/well with MultiDrop Combi dispenser (Thermo Scientific, Logan, UT) onto white tissue culture treated solid bottom1536-well plates (Greiner #789173-F) and allowed to attach/recover overnight at 37 degrees C, 5% CO2. Next, 23nl/well of compound solutions in DMSO were transferred into wells with a pintool (Kalypsis, San Diego, CA). […] EC80 (relaxin at 50pM final concentration) was dispensed to the rest of the plate except columns 1&2 which were used as a negative control (EC0, buffer only), 1microl/well also. The cells were stimulated by relaxin in the presence of compounds for 30 minutes at 37 degrees C, 5% CO2. The detection reagents were prepared individually by dilution in Lysis buffer (supplied with the assay kit) just prior to dispensing. 1microl/well of cAMP-d2 and 1microl/well anti-cAMP-Eu3+-Cryptate antibodies were added simultaneously with BioRAPTR FRDtrade mark Workstation (Beckman Coulter). The plates were incubated at ambient temperature for 30 minutes and, then, FRET signal was read on Envision plate reader (PerkinElmer, Waltham, MA), at wavelengths 340nm (excitation), 615nm & 665nm (emission of donor and acceptor channels respectively).
On the % scale 0 is the no-effect control and ±100 the full control effect.

| Structure (SMILES) | activity change, negative = inhibition |
| --- | --- |
| CCOC(=O)Nc1cccc([As](=O)(O)O)c1 | inactive: 4.78% |
| O=[N+]([O-])c1ccc(Nc2ccc(Oc3ccc([N+](=O)[O-])cc3[N+](=O)[O-])cc2)c([N+](=O)[O-])c1 | inactive: 8.64% |
| O=P(Nc1ccccn1)(c1cccc2ccccc12)c1cccc2ccccc12 | inactive: -0.335% |
| Cc1cc(SC(NC=O)C(Cl)(Cl)Cl)ncn1 (configuration not stated) | inactive: -4.05% |
| CC1CCNP(=O)(N(CCCl)CCCl)O1 (configuration not stated) | inactive: 1.24% |
| CCOC(=O)Nc1ccc([As](=O)(O)O)c(O)c1 | inactive: -8.23% |
| O=C(O)C(O)c1ccc(N(CCCl)CCCl)cc1 (configuration not stated) | inactive: 14.8% |
| Cc1cc(SC(NC(=O)c2ccccc2)C(Cl)(Cl)Cl)nc(C(C)C)n1 (configuration not stated) | active: -109% |
| CCCCOc1ccc(C(=O)NCC2(N3CCCCC3)CCCCC2)cc1OC | inactive: -8% |
| COP(=O)(OC)N1CC1c1ccccc1 (configuration not stated) | inactive: 4.46% |
| CC(C)c1ccc(OP(=O)(Nc2ccccn2)Oc2ccccc2F)cc1 (configuration not stated) | inactive: 5.58% |
| COC(=O)C1(C)COP(=O)(N2CCCCCC2)OC1 (configuration not stated) | inactive: -9.99% |
| ClCCSc1nnc(-c2cccnc2)o1 | inactive: 0.105% |
| O=[N+]([O-])c1cc([N+](=O)[O-])c(-c2ccn[nH]2)s1 | inactive: 3.39% |
| O=C(OC1CN2CCC1CC2)c1cccc2[nH]cnc12 (configuration not stated) | inactive: -8.4% |
| CCN(CC)C(=S)SC(NC=O)C(Cl)(Cl)Cl (configuration not stated) | inactive: 6.34% |
| CC(C)NC(=O)NP(=O)(Oc1ccccc1)Oc1ccccc1 | inactive: -24.9% |
| COc1cc(C(=O)NCC2(N3CCOCC3)CCCCC2)ccc1OCC(C)C | inactive: -6.8% |
| O=[N+]([O-])c1ccc(-c2cc([N+](=O)[O-])c(O)c([N+](=O)[O-])c2)cc1 | inactive: -6.55% |
| C[As](=O)(O)c1cccc(C(=O)O)c1 | inactive: 2.22% |
| O=[As](O)(c1ccc(O)cc1)c1ccccc1O | inactive: -10.2% |
| Cc1ccc(OP(=O)(Nc2ccc([N+](=O)[O-])cn2)Oc2ccc(C)cc2)cc1 | inactive: 6.5% |
| COc1ccc(N/C(=N/P(=O)(N2CCOCC2)N2CCOCC2)N2CCOCC2)cc1 | inactive: -14.4% |
| O=[N+]([O-])c1cc(Oc2ccc([N+](=O)[O-])cc2C(F)(F)F)cc([N+](=O)[O-])c1 | inactive: -2.67% |
| Cc1cc(=O)[nH]c(N[N+](=O)[O-])n1 | inactive: -3.89% |
| O=C(OC1CN2CCC1CC2)C12CC3CC(CC(C3)C1)C2 (configuration not stated) | inactive: 0.804% |

| Structure (SMILES) | activity change, negative = inhibition |
| --- | --- |
| Cc1c2c(nc3ccccc13)SC(C(Cl)Cl)C2 (configuration not stated) | inactive: -13.5% |
| COc1cc(I)ccc1[As](=O)(O)O | inactive: -7.93% |
| COc1ccc2nc(NP(=O)(c3ccccc3)c3ccccc3)sc2c1 | inactive: -12.7% |
| O=P1(N(CCCl)CCCl)Nc2ccccc2N1 | inactive: 2.44% |
| O=P1(N(CCCl)CCCl)OCCCN1CCCl (configuration not stated) | inactive: -1.36% |
| CC(C)CC(=O)NC(Sc1ccc(Cl)cc1)C(Cl)(Cl)Cl (configuration not stated) | inactive: -29.5% |
| Nc1cc(N)c2nonc2c1[N+](=O)[O-] | inactive: 2.36% |
| O=C(NC(Sc1ccncn1)C(Cl)(Cl)Cl)c1ccccc1 (configuration not stated) | inactive: -0.562% |
| Oc1ccccc1CNc1ccccn1 | inactive: 5.88% |
| NC(=O)c1cc([N+](=O)[O-])cc([N+](=O)[O-])c1N | inactive: 5.14% |
| Cc1ccc(N/C(=N/P(=O)(N2CCOCC2)N2CCOCC2)N2CCOCC2)cc1 | inactive: -6.64% |
| Cc1ccc(OP(=O)(Nc2nccs2)Oc2ccc(C)cc2)cc1 | inactive: -12.2% |
| COc1ccccc1OP(=O)(Nc1ccc(C)cn1)Oc1ccccc1OC | inactive: -1.78% |
| Clc1ccc(Cl)c(NC2=NCC(CBr)S2)c1 (configuration not stated) | inactive: -8.03% |
| CN1CCCC(OC(=O)C(c2ccccc2)c2ccccc2)C1 (configuration not stated) | inactive: 4.03% |
| CCN(N=Nc1nonc1N)c1nonc1N | inactive: 2.48% |
| Nc1cccc2ccc([As](=O)(O)O)cc12 | inactive: -0.509% |
| CCCC1OP(N)(=O)OCC1CC (configuration not stated) | inactive: 4.2% |
| O=C(O)c1ccccc1[As](=O)(O)O | inactive: 10.6% |
| CC(=O)Nc1ccc([As](=O)(O)O)cc1 | inactive: -3.06% |
| CN(C)P(=O)(N(C)C)n1c(Nc2ccccc2)nnc1-c1ccccc1 | inactive: -13.1% |
| Cc1ccc(NP(=O)(Oc2ccccc2F)Oc2ccccc2F)nc1 | inactive: -10.2% |
| CCOP(=O)(Nc1ccccc1)OCC | inactive: -9.13% |
| Cc1cc(SC(NC(=O)c2ccc(F)cc2)C(Cl)(Cl)Cl)ncn1 (configuration not stated) | inactive: 4.47% |
| CC(C)(C)C(=O)NC(Sc1ccncn1)C(Cl)(Cl)Cl (configuration not stated) | inactive: 0.305% |
| O=[N+]([O-])c1ncn(CCn2ncnc2[N+](=O)[O-])n1 | inactive: 3.72% |
